Measured values as given in PubChem BioAssay AID1648 (Sanford-Burnham Center for Chemical Genomics, 2009).
Activity calls are given as the source filed them. The rule behind the calls is not given here.

Target: Serine/threonine-protein kinase mTOR (Homo sapiens) (UniProt P42345)
Assay: mTOR FRB domain ligand binding – biophysical, NMR (AID 1648)
Conditions: NMR binding to FRB domain, chemical shift

Cc1c2non([O-])c-2c(C)[n+](=O)[n+]1[O-]
Kd: inactive: > 4 mM
